In the test the target is human cloned 5-HT6 receptors (Homo sapiens, UniProt P50406). Briefly: 5-HT6 binding affinity ([3H]-LSD displacement, membranes of Hela cells expressing human cloned 5-HT6 receptors). Particulars: read-out: 5-HT6 Binding Ki; [3H]-LSD 3.0 nM, Hela cell membranes, 120 min at room temperature; tested form: fumarate.

Sequences of proteins named here, by UniProt entry; tags and fusion partners are left off.
UniProt P50406, whole entry: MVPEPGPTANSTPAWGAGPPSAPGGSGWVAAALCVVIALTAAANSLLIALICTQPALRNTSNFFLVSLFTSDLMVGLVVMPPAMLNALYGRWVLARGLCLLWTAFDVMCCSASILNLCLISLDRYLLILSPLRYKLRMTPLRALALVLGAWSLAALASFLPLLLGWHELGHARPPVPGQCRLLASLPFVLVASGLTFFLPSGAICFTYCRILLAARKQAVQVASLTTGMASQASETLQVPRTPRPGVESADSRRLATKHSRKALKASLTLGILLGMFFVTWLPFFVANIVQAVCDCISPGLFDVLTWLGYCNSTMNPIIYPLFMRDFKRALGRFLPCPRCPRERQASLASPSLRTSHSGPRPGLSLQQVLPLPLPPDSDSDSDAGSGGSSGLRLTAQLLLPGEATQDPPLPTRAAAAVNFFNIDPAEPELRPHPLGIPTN

For orientation: Ki means a measure of affinity in units of concentration, obtained from inhibition or displacement. Regarding `O=S(=O)(CCNCC1CCc2ccc(OCc3ccccc3)cc2O1)Cc1ccccc1` (stereo not shown), the Ki turned out to be 125 nM.
